Ab-91 heavy chain CDR variants: yeast mating affinities

Antigen: PDVDLGDISGINAS, a 14-residue peptide of the SARS-CoV-2 spike HR2 region.

Ab-91 is the parent antibody, in scFv form: VL, then the linker GGGGSGGGGSGGGGS, then VH. The light chain is unchanged in all variants.
VL: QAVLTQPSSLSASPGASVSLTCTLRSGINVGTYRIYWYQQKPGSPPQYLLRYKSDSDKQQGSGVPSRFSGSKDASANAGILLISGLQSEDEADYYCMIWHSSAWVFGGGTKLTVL
VH: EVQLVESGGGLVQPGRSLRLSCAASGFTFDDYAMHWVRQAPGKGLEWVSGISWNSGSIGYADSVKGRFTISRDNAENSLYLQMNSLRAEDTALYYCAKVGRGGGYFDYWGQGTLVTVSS

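Phage display of a naive human antibody library on the peptide gave the parent. In library AAYL51, one, two or three CDR residues were substituted; doubles and triples were drawn at random. AlphaSeq pools MATa yeast showing the antibodies with MATalpha yeast showing the peptide. Pairs that bind mate more often; barcode pairs of the diploids are counted by sequencing. Each replicate has its own calibration line, from reference interactions of the BCL2 family. Each pool was mated in three replicate cultures.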

Each variant is given by its three heavy chain CDRs, as the data file delimits them; those of the parent are GFTFDDYAMH, GISWNSGSIGYADSVK, VGRGGGYFDY. This list gathers variants with a substitution at H35 (VH, numbered from residue 1). Values are apparent Kd, the geometric mean of the replicates that gave a signal; lower means stronger binding. "no signal" means that the variant was in the library but no mating with the target was seen in any replicate; the authors take this as a sign of poor binding, and no number exists. The list is sorted by this average, lowest first, undetected variants last. Background: pairings of library AAYL51 with three empty control strains gave a value in 21% of cases (median 34 µM, 5th percentile 1.8 µM). Values in that range, when seen in few replicates, are hard to tell from nonspecific mating.

* GFTFDDYAML / GISYNSGSIGYADSVK / VGRGMGYFDY: 3.3 µM (1 of 3 replicates)
* GFHFDDYAMQ / GISWNSGSIGYADSVK / VGRGGRYFDY: 4.5 µM (1 of 3 replicates)
* GFTCDDYAMV / GISWNSGSIGYADSVL / VGRGGGYFDY: 11 µM (3 of 3 replicates)
* GFTCDDYAMA / GISWNSGSIGLADSVK / VGRGGGYFDY: 11 µM (3 of 3 replicates)
* GFTFDDYAME / GISWNCGSIGYADSVK / VGRGGGYFIY: 13 µM (2 of 3 replicates)
* GFTFDDYAMD / GISWNSGSIGYAKSVK / VGRGGGYFDY: 16 µM (1 of 3 replicates)
* GFTFCDYAMR / GISWNSGSIGYADSVK / WGRGGGYFDY: 21 µM (2 of 3 replicates)
* GFTFDDYGMF / GFSWNSGSIGYADSVK / VGRGGGYFDY: 24 µM (1 of 3 replicates)
* GFTFDDYAMS / GISWNSGSIGYADSVK / VGRDGGYFDY: 27 µM (3 of 3 replicates)
* GFTFDDYAMT / GISWSSGSIGYCDSVK / VGRGGGYFDY: 35 µM (1 of 3 replicates)
* GFTFDDYAMM / GISINSGSIGYADSVK / LGRGGGYFDY: 35 µM (2 of 3 replicates)
* DFTFDDYAMT / GISWNSGSIGYADSVK / VGAGGGYFDY: 37 µM (1 of 3 replicates)
* GFTFDDYQMI / GISWNSGSIGYADSVK / VGRGWGYFDY: 41 µM (2 of 3 replicates)
* GFTFDDYAMN / GISWASGSIGYADSLK / VGRGGGYFDY: 49 µM (2 of 3 replicates)
* GFTFNDYAMV / GISWNSGSIGYADSVK / VGNGGGYFDY: 50 µM (1 of 3 replicates)
* GFTFDRYAMG / GISWNSGSIGYKDSVK / VGRGGGYFDY: 52 µM (2 of 3 replicates)
* GFTFDDYAME / GISWNSGSIGYADSVK / VGFGGGYFDY: 60 µM (1 of 3 replicates)
* GFTFDNYAMC / GISWNSGSIGYADSVK / VGRGGGYFDY: 60 µM (3 of 3 replicates)
* GFTFDDYAMV / GISWNSGVIGYPDSVK / VGRGGGYFDY: 75 µM (3 of 3 replicates)
* GFTFDDYAMS / GISWQSGSIGYADSVK / VGRGGGTFDY: 100 µM (3 of 3 replicates)
* GFTFDDYAMN / GISWNSGSILYADSVK / VGRGGGYFDH: 120 µM (2 of 3 replicates)
* GFTFDHYAMT / GISWNSGSIGWADSVK / VGRGGGYFDY: 130 µM (3 of 3 replicates)
* GFTFDDYAMG / GISWNSGSIGYADSVK / EGRGGGYFDD: 140 µM (3 of 3 replicates)
* GFTFDDYAMS / GISWNDGSIGYADSVK / VGRGGGYHDY: 140 µM (2 of 3 replicates)
* GFTFDDYAMN / GISWNSGSIGYADSVK / VGRTGKYFDY: 190 µM (3 of 3 replicates)
* GETFDDYAMM / GISWNSGSIWYADSVK / VGRGGGYFDY: 240 µM (3 of 3 replicates)
* GFTFDDYAMC / GISWNSGSIGYADSVK / VGRGGGAFDY: 240 µM (3 of 3 replicates)
* GFTFDDYAFC / GASWNSGSIGYADSVK / VGRGGGYFDY: 260 µM (1 of 3 replicates)
* GFTFDDYAMG / GISWNSGSITYADSVK / VGRGGKYFDY: 270 µM (1 of 3 replicates)
* GFTCDDYAME / GISWNSGSIGYADSVK / YGRGGGYFDY: 350 µM (1 of 3 replicates)
* GFTFCDYAMQ / GISWNSGSIGYADTVK / VGRGGGYFDY: 590 µM (2 of 3 replicates)
* GFTFDDLAVV / GISWNSGSIGYADSVK / VGRGGGYFDY: 840 µM (2 of 3 replicates)
* GFYFDDYAMD / GISWNSCSIGYADSVK / VGRGGGYFDY: 1.6 mM (2 of 3 replicates)
* GFTFDDYRMV / GISWNSRSIGYADSVK / VGRGGGYFDY: no signal (0 of 3 replicates)
* GFTGDDYAMT / GISWNSGSIGYADSVK / VGRGGGYFDI: no signal (0 of 3 replicates)
* GFTFDDYAMR / GISWNSGSIEYAVSVK / VGRGGGYFDY: no signal (0 of 3 replicates)
* GKTFDDYAMI / GISWNSGSIGYADSVK / VGRGGGYFDY: no signal (0 of 3 replicates)
* GFTFDDYAMN / GISWNSGSIGYADSVK / VRRGGGYFQY: no signal (0 of 3 replicates)
* GFAFDDYAMA / GISWNSGSIGYADSVK / VGRHGGYFDY: no signal (0 of 3 replicates)
* GFTFDDYAMR / GISWNSGSIGYADSDK / VGRCGGYFDY: no signal (0 of 3 replicates)
* GFTFDIYAMR / GISWNSGSIGQADSVK / VGRGGGYFDY: no signal (0 of 3 replicates)
* GFTFDDYAMP / GISWNPGSIGYADSGK / VGRGGGYFDY: no signal (0 of 3 replicates)
* GFTMDDYAMP / GISWNSGSIGYADSVK / VGRVGGYFDY: no signal (0 of 3 replicates)
* GFTFWDYAMK / GISWNSGSIGYADSVK / VGRGGMYFDY: no signal (0 of 3 replicates)
* GFTFDDYAYD / GISWNSGSIGYADSYK / VGRGGGYFDY: no signal (0 of 3 replicates)
* GFTFDDYAMR / GISWNSGSIGYADSVK / VGTRGGYFDY: no signal (0 of 3 replicates)
* GFTFDDYAMF / GISWNSGKIGYADSVK / VGRGGYYFDY: no signal (0 of 3 replicates)

Excerpt, the final 3 entries:

* GFTFDDYAYD / GISWNSGSIGYADSYK / VGRGGGYFDY -> no signal (0 of 3 replicates)
* GFTFDDYAMR / GISWNSGSIGYADSVK / VGTRGGYFDY -> no signal (0 of 3 replicates)
* GFTFDDYAMF / GISWNSGKIGYADSVK / VGRGGYYFDY -> no signal (0 of 3 replicates)

Source: Engelhart et al. 2022 (doi:10.1038/s41597-022-01779-4), MIT Lincoln Laboratory and A-Alpha Bio; data file from the FLAb repository.